Biological target: human α7 nAChR (Homo sapiens (Human), UniProt P36544)
Assay: FlexStation-Ca2+ influx assay of human α7 nAChR activity
Assay type: cell-based
Conditions: read-out: EC50 of human α7 nAChR; HEK293T/17 cells transfected with human α7 nAChR and RIC3; with PNU-120596; fluorescence relative to 1 μM epibatidine

By UniProt entry, the sequences of proteins in these tests, tags left out. Residues count along the entry.
UniProt P36544, 23-502 limits assumed: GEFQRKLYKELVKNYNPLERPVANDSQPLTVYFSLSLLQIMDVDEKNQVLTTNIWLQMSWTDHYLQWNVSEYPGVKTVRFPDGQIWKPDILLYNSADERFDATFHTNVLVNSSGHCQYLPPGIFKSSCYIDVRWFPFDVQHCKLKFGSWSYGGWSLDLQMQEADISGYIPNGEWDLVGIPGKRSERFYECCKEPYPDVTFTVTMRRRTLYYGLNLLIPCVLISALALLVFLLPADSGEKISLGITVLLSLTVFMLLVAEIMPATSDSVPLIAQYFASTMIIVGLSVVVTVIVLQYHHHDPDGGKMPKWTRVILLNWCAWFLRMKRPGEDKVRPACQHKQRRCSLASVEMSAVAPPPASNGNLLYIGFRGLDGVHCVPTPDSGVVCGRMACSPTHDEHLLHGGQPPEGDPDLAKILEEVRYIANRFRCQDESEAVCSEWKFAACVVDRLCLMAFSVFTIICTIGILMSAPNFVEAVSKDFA

Compound: CC(C)c1cnc(-n2cc(C(=O)OC3CN4CCC3CC4)ccc2=O)s1 (centres unmarked)
- EC50: > 1000 nM

Compound: Cc1cnc(-n2cc(C(=O)OC3CN4CCC3CC4)ccc2=O)s1 (centres unmarked)
- EC50: > 1000 nM

From patent US9987259B2 (priority 2011, dated 2018)
